Laboratory results taken from patent US8759334B2, “Compounds useful for the treatment of metabolic and inflammatory diseases” (Galapagos NV, priority 2011, dated 2014).
Read-outs that look alike come from different tables or passages of the source.

Tested on: human neutrophils
Experiment: Neutrophil migration assay
Assay type: cell-based
Experimental: G Protein-Coupled Receptor 43 (GPR43) was described as an essential player in the process of neutrophil recruitment during intestinal inflammation.
The effect of agonists or antagonists for GPR43 can therefore be assayed in a neutrophil migration test. In the neutrophil migration assay, neutrophils, isolated from buffy coats from human volunteers, are treated with a compound for 30 minutes. Subsequently, the neutrophils are transferred to the upper wells of a Corning HTS transwell 96 permeable support system, of which the lower wells are filled with a sodium acetate solution.
The ACD buffer consists of 140 mM citric acid, 200 mM sodium citrate and 220 mM dextrose. The 6% dextran/0.9% NaCl solution consists of 15 g dextran T2000 and 2.25 g NaCl dissolved in 250 mL H2O.
A human buffy coat is diluted with an equal volume of ice cold DPBS. 20 mL of the diluted buffy coat is gently mixed with 4 mL of ACD buffer. Then, 12 mL of the 6% dextran/0.9% NaCl solution is added to the mixture and the samples are inverted gently up to 20 times. […]
A cell suspension of 8.9×10^6 cells per milliliter is prepared. […] 170 μL of cell lysate is then transferred to a white 96-well plate and luminescence is measured. The detected luminescent signal is considered as linearly related to the number of migrated cells.

Compound | EC50 (Homo sapiens, read-out: human neutrophil migration inhibition EC50 (nM)) [nM] | EC50 (neutrophils from human buffy coat, migration towards sodium acetate, read-out: human neutrophil migration inhibition EC50) [nM]
C[C@]1(C(=O)N(CCCC(=O)O)Cc2cccc(Cl)c2)CCN1C(=O)c1csc2ccccc12 [Compound 191, 4-[[(R)-1-(Benzo[b]thiophene-3-carbonyl)-2-methyl-azetidine-2-carbonyl](3-chloro-benzyl)-amino]-butyric acid] | 0.01 to 100 | 
CC1(C(=O)N(CCCC(=O)O)Cc2cccc(Cl)c2)CCN1C(=O)c1csc2ccccc12 (centres unmarked) [Compound 146, 4-[[1-(Benzo[b]thiophene-3-carbonyl)-2-methyl-azetidine-2-carbonyl]-(3-chloro-benzyl)-amino]-butyric acid] |  | 0.01 to 100
